From PubChem
GALK inhibitor: blocks human galactokinase activity; Purified GALK, Kinase-Glo residual ATP luminescence; Potency, µM (top dose mostly 57.5 µM), without a hit: at the highest dose activity change, negative = inhibition, usual class: inhibitors; hit rate 0.007% among 270,000; note: potency is the fitted concentration of half-maximal effect; % is set by controls: 0 for no effect and ±100 for the full control effect
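5 nM enzyme, 35 uM ATP, 100 uM galactose, 20 mM HEPES pH8.0, 5 mM MgCl2; 1 h RT; residual ATP by Kinase-Glo Plus luminescence, qHTS format.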
miR-21 reporter: miR-21 reporter, rising signal; HeLa miR-21 FLuc reporter, luciferase, 48 h; Potency, µM (titrated, usually from 38.3 µM), without a hit: top-dose reporter change, positive = more light; AID 2288; 340,000 tested, under 10 active; active = well fitted rising curve with a large enough effect; inconclusive = small, poorly fitted or top-dose-only effect; inactive = no such curve, though single readings can be large or run the other way;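 further: % of control where 0% means no effect; miR-21 action dims this reporter so a rising signal means less miR-21 action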
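Using DMEM plus 10% FBS, HeLa miR-21-FLuc cells are incubated with test compounds (final up to about 40uM) for 48 hours; firefly luciferase signal is then imaged following reagent-mediated lysis.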
PI4K2A block: inhibitors of human PI4K2A; Q9BTU6; activity change, negative = inhibition, % at 76.9 µM; purified PI4K2A, ADP-Glo luminescence, 1 h; hits give low values; hit rate 0.13% among 420,000; in the data active = activity change below about -50%; inconclusive = mostly about -30% to -49%;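 note: -100% = wells without enzyme as full effect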
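Compounds are screened against recombinant PI4K2A using PI as substrate and ATP, the latter dispensed at 300 microM. Reactions run one hour at ambient temperature before ADP-Glo detection; full inhibition defined by wells lacking enzyme.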
Nrf2 inh: Nrf2 pathway inhibition. A549 ARE-Fluc reporter, luciferase luminescence, 18-24 h. Potency, µM (highest dose often 46 µM), inactives show top-dose activity change, negative = inhibition, actives largely listed as inhibitors. hit rate 2.1% among 360,000; note: potency is the fitted concentration of half-maximal effect; % is set by controls: 0 for no effect and ±100 for the full control effect; nearly all actives have a fitted effect of over 60% in size
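Nrf2 activity is the BugLite luminescence, read 15 min after reagent at room temperature, following CellTiter-Fluor cytotoxicity readout (30 min, 37C). Compound titrations were applied for 18-24 h to 5000 A549 ARE_Fluc cells/well in 5% FBS OPTI-MEM.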
Nrf2 ARE act: activators of Nrf2 (ARE) signaling; AREc32 ARE-luciferase reporter (MCF7-derived line), luminescence, 24 h; Potency, µM (highest dose often 46.1 µM), inactives show top-dose activation, usual class: activators; hit rate 0.31% among 410,000; AID 624171; note: potency is the fitted concentration of half-maximal effect; % of control where 0% means no effect; nearly all actives have a fitted effect of over 65% in size
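Reporter line AREc32 (ARE-Fluc), seeded overnight in OPTI-MEM with 5% FBS; compound pin-transferred, 24 hr at 37 deg C, 5% CO2; luminescent read-out.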
A549 tox: counter-screen for Nrf2 inhibitors: cytotoxicity in A549 cells; AID 504648; Potency, µM (series often up to 46 µM), inactives show top-dose activity change, negative = cytotoxicity, usual class: inhibitors; A549 ARE-Fluc cells, CellTiter-Fluor viability, 18-24 h; hit rate 0.16% among 390,000; note: potency is the fitted concentration of half-maximal effect; % is set by controls: 0 for no effect and ±100 for the full control effect
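Cytotoxicity counterscreen: CellTiter-Fluor fluorescence was measured in A549 ARE_Fluc cells after 18-24 h of compound exposure in a concentration series. The subsequent BugLite luminescent read reports ARE-luciferase activity.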
Starred values were filed as active, the others as inactive; ? = inconclusive; . = not tested or not shown. This is a sample that favours compounds with a hit; in the whole collection about 2.2% have one here. Unless noted, calls come from the whole dose curve; as a rule, active = well fitted curve in the direction sought with a large enough effect; inconclusive = small, poorly fitted or top-dose-only effect, or another doubt; inactive = no such curve, though single readings can be large; an effect the other way counts as inactive or inconclusive.

nr | SMILES | GALK inhibitor | Nrf2 ARE act | PI4K2A block
1 | CC(C)C[C@H](NC(=O)CNC(=O)[C@H](Cc1ccc(O)cc1)NC(=O)[C@H](CO)NC(=O)[C@H](Cc1c[nH]c2ccccc12)NC(=O)[C@H](Cc1cnc[nH]1)NC(=O)[C@@H]1CCC(=O)N1)C(=O)N[C@@H](CCCN=C(N)N)C(=O)N1CCC[C@H]1C(=O)NCC(N)=O (stereo in doubt) | . | . | -2.3
2 | O=C(c1ccc(F)cc1F)N1CCC(Oc2cccnc2)CC1 | . | . | -1.4
3 | CCCOc1ccc2c(c1)CC[C@@H]1[C@@H]2CC[C@]2(C)C(OC)CC[C@@H]12 (stereo partly specified) | . | . | 3.3
4 | COc1ccc(CCNC(=O)c2cc3sc(Cl)cc3n2C)cc1OC | -2.0% | 2.4% | -1.3
5 | COc1ccc(CCNC(=O)c2nc(-c3cccs3)no2)cc1OC | 3.6% | 3.5% | -0.7
6 | Cc1cc(N2C3CCC2CC(O)(c2ccc(F)cc2)C3)nc(-c2ccccc2)n1 (stereo unspecified) | 0.3% | 4.5% | -2.3
7 | Cc1ccc(S(=O)(=O)Nc2ccc(-n3c(C)nc4ccccc4c3=O)cc2)cc1 | . | -0.7% | -5.2
8 | CC(=O)c1ccc(S(=O)(=O)Nc2ccc(-n3c(C)nc4ccccc4c3=O)cc2)cc1 | . | -0.4% | 0.4
9 | O=C(NCC(c1cccs1)N1CCOCC1)c1ccccc1NS(=O)(=O)c1cccc([N+](=O)[O-])c1 (stereo unspecified) | -0.4% | 3.1% | -3.9
10 | CC(C)(C)c1ccc(S(=O)(=O)N2CCCC2C(=O)N2CCN(c3ccccc3)CC2)cc1 (stereo unspecified) | . | . | -1.6

nr | A549 tox | Nrf2 inh | miR-21 reporter
1 | . | . | .
2 | . | . | .
3 | . | . | .
4 | -2.6% | 25.9µM* | -8.3%
5 | -17.4% | 20.6µM* | 7.4%
6 | ? | 23.1µM* | 12.5%
7 | 0.3% | 18.4µM* | .
8 | 0.5% | 0.9% | .
9 | ? | 20.6µM* | 0.7%
10 | . | . | .

Carrying on:
nr | SMILES | GALK inhibitor | Nrf2 ARE act | PI4K2A block
11 | COc1cc(C2Nc3ccccc3C(=O)N2Cc2ccccc2)ccc1OCc1ccc(NC(C)=O)cc1 (stereo unspecified) | . | . | .
12 | CC(CC(C#N)(c1ccccc1)C(C)C)N(C)C (stereo unspecified) | . | . | -3.6
13 | COC(=O)C(NC(=O)c1ccccc1Cl)(Nc1ncc(S(=O)(=O)c2ccc([N+](=O)[O-])cc2)s1)C(F)(F)F (stereo unspecified) | 0.5% | 21.6% | -19.2
14 | CCC(C)(C)C(=O)Nc1ncc(S(=O)(=O)c2ccc([N+](=O)[O-])cc2)s1 | 1.6% | 8.2% | -8.1
15 | O=C(CCC(=O)N1CCN(C2c3ccccc3-c3ccccc32)CC1)Nc1nnc(C(F)(F)F)s1 | . | . | 2.0
16 | CCCN1CCN(C(=S)Nc2ccccc2C(F)(F)F)CC1 | -0.7% | 2.0% | 0.8
17 | COc1cccc(CN(C)C(=O)c2[nH]c(C)c(C(C)=O)c2C)c1OC | 5.9% | 0.5% | 8.4
18 | COc1ccccc1CNC(=O)c1[nH]c(C)c(C(C)=O)c1C | 3.2% | 3.3% | -7.4
19 | C/C(=C(\CCO)SS/C(CCO)=C(\C)N(C=O)Cc1cnc(C)nc1N)N(C=O)Cc1cnc(C)nc1N | . | . | -2.5
20 | CCN(c1ccccc1)S(=O)(=O)c1ccc(C(=O)Nc2cccc(C)n2)cc1 | . | 0.2% | 1.0

nr | A549 tox | Nrf2 inh | miR-21 reporter
11 | -0.1% | 13.8% | .
12 | . | . | .
13 | -25.8% | 20.6µM* | 15.9%
14 | -13.5% | ? | 10.3%
15 | . | . | .
16 | -1.8% | 16.4µM* | 22.4%
17 | -0.9% | 23.1µM* | 11.1%
18 | 1.0% | -14.1% | -0.2%
19 | . | . | .
20 | -17.8% | 18.4µM* | .

Next part.
nr | SMILES | GALK inhibitor | Nrf2 ARE act | PI4K2A block
21 | Cc1ccc(S(=O)(=O)N(C)c2ccc(C(=O)Nc3cccc(C)n3)cc2)cc1 | 2.5% | -0.3% | 0.6
22 | CCN(c1ccccc1)S(=O)(=O)c1cccc(C(=O)Nc2ccc(C)cn2)c1 | 4.9% | 0.4% | 3.1
23 | Cc1cccc(NC(=O)c2cccc(S(=O)(=O)N(C)c3ccccc3)c2)n1 | . | 9.9% | -9.9
24 | O=C(CNC(=O)c1ccccc1)N[C@H](C(=O)Nc1cc(C(F)(F)F)ccc1Cl)c1ccccc1 | . | . | .
25 | O=[N+]([O-])c1ccc(/C=N/Nc2nc(N3CCCCC3)nc(N3CCCCC3)n2)o1 | -3.9% | 6.0% | -0.8
26 | COc1c(/C=N/Nc2nc(N3CCCCC3)nc(N3CCCCC3)n2)cccc1[N+](=O)[O-] | -1.9% | 0.3% | -0.5
27 | CS(=O)(=O)c1nc(S(=O)(=O)c2ccc(Cl)cc2)c(N2CCC(C(N)=O)CC2)s1 | 4.1% | ? | -2.8
28 | CS(=O)(=O)c1nc(S(=O)(=O)c2ccc(Cl)cc2)c(N2CCC3(CC2)OCCO3)s1 | 1.0% | 10µM* | -3.2
29 | CCS(=O)(=O)c1nc(S(=O)(=O)c2ccc(Cl)cc2)c(N2CCC3(CC2)OCCO3)s1 | -0.3% | 11.2µM* | 5.8
30 | CCS(=O)(=O)c1nc(S(=O)(=O)c2ccc(Cl)cc2)c(N2CCOCC2)s1 | 0.7% | ? | 1.7

nr | A549 tox | Nrf2 inh | miR-21 reporter
21 | -8.0% | ? | 13.8%
22 | 5.6% | ? | 3.0%
23 | ? | 14.6µM* | .
24 | -3.0% | -11.6% | .
25 | ? | 18.4µM* | 0.3%
26 | -6.9% | ? | -2.4%
27 | -10.1% | -49.3% | 9.5%
28 | -3.7% | ? | 8.9%
29 | 2.3% | 6.2% | 6.7%
30 | 4.7% | -10.4% | 6.4%

More results follow.
nr | SMILES | GALK inhibitor | Nrf2 ARE act | PI4K2A block
31 | Cc1ccccc1C(=O)N1CCN(c2ccc(NC(=O)c3ccc4c(c3)OCCO4)cc2)CC1 | -4.2% | -0.2% | -2.0
32 | Cc1ccccc1C(=O)N1CCN(c2ccc(NC(=O)c3cccc(OC(C)C)c3)cc2)CC1 | -1.3% | 0.2% | 3.8
33 | Cc1ccccc1C(=O)N1CCN(c2ccc(NC(=O)CSc3ccc(Cl)cc3)cc2)CC1 | -0.9% | 0.4% | 0.2
34 | COc1c(C)cccc1C(=O)Nc1ccc(N2CCN(C(=O)c3ccccc3C)CC2)cc1 | 4.6% | -1.2% | 8.1
35 | Cc1oc(-c2ccccc2F)nc1CS(=O)(=O)CC(=O)N1CCN(c2ccc(Cl)cc2)CC1 | . | -0.4% | 3.7
36 | CN(C)CC(CCC(CN(C)C)C(=O)c1ccccc1)C(=O)c1ccccc1 (stereo unspecified) | -2.4% | ? | 4.7
37 | O=C(c1ccccc1)C(CCC(CN1CCOCC1)C(=O)c1ccccc1)CN1CCOCC1 (stereo unspecified) | -1.6% | -3.7% | -5.1
38 | NCCCN(Cc1ccc(Cl)c(Cl)c1)c1ccc(Br)cn1 | . | . | .
39 | CCOC(=O)[C@@]12CCC3=C1N(CCC3)C(=O)[C@H](CC(=O)N1CCN(C(=O)C3CC3)CC1)C2 | . | . | 8.5
40 | C=CCNS(=O)(=O)c1nc(C)c(Cl)c(C)c1C#N | 0.9% | 11.2µM* | 1.9

nr | A549 tox | Nrf2 inh | miR-21 reporter
31 | -3.7% | 20.6µM* | ?
32 | -1.0% | 0.4% | 3.1%
33 | -28.0% | 20.6µM* | 27.9%
34 | -14.2% | 20.6µM* | ?
35 | ? | 5.8µM* | ?
36 | ? | 18.4µM* | ?
37 | -17.0% | 23.1µM* | ?
38 | 1.6% | 9.5% | .
39 | . | . | .
40 | -7.7% | -7.2% | -5.7%

Copied from above: compounds 38–40
nr | SMILES | GALK inhibitor | Nrf2 ARE act | PI4K2A block
38 | NCCCN(Cc1ccc(Cl)c(Cl)c1)c1ccc(Br)cn1 | . | . | .
39 | CCOC(=O)[C@@]12CCC3=C1N(CCC3)C(=O)[C@H](CC(=O)N1CCN(C(=O)C3CC3)CC1)C2 | . | . | 8.5
40 | C=CCNS(=O)(=O)c1nc(C)c(Cl)c(C)c1C#N | 0.9% | 11.2µM* | 1.9

nr | A549 tox | Nrf2 inh | miR-21 reporter
38 | 1.6% | 9.5% | .
39 | . | . | .
40 | -7.7% | -7.2% | -5.7%
